Experimental data from PubChem BioAssay (NCI).
Some results for these compounds are left out of this collection, so the calls shown say nothing about other tests.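 48-hour exposure; five concentrations; linearly interpolated endpoints. Abbreviation: GI50, concentration required for 50% inhibition of growth. TGI is the concentration that stops growth completely.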

Key:
Assay in all cases: NCI anticancer screen, dose series, 48 h
[1] = system: SR leukemia
[2] = system: 786-0 renal
[3] = system: SF-268 CNS
[4] = system: MDA-MB-231 breast
[5] = system: KM12 colon
[6] = system: U251 CNS
[7] = system: PC-3 prostate
[8] = system: UACC-257 melanoma
[9] = system: SK-MEL-28 melanoma
[10] = system: SN12C renal
[11] = system: SW-620 colon
[12] = system: OVCAR-4 ovarian
[13] = system: SK-MEL-5 melanoma
[14] = system: OVCAR-5 ovarian
[15] = system: HCC-2998 colon
[16] = system: NCI-H23 lung
[17] = system: SF-539 CNS
[18] = system: UACC-62 melanoma
[19] = system: HS 578T breast
[20] = system: NCI-H322M lung
[21] = system: NCI-H460 lung
[22] = system: HT29 colon
[23] = system: HCT-116 colon
[24] = system: EKVX NSCLC
[25] = system: LOX IMVI melanoma
[26] = system: HL-60(TB) leukemia
[27] = system: MOLT-4 leukemia
[28] = system: SF-295 CNS
[29] = system: TK-10 renal
[30] = system: SNB-75 CNS
[31] = system: T-47D breast
[32] = system: M14 melanoma
[33] = system: RPMI-8226 leukemia
[34] = system: OVCAR-3 ovarian
[35] = system: HOP-92 NSCLC
[36] = system: DU-145 prostate
[37] = system: IGROV1 ovarian
[38] = system: SNB-19 CNS
[39] = system: HCT-15 colon
[40] = system: A498 renal
[41] = system: K-562 leukemia
[42] = system: CAKI-1 renal
[43] = system: MCF7 breast
[44] = system: MDA-MB-435
[45] = system: A549 NSCLC
[46] = system: NCI-H522 lung
[47] = system: NCI/ADR-RES ovarian
[48] = system: COLO 205 colon
[49] = system: CCRF-CEM leukemia
[50] = system: MDA-N
[51] = system: MALME-3M melanoma
[52] = system: OVCAR-8 ovarian
[53] = system: ACHN renal
[54] = system: SK-MEL-2 melanoma
[55] = system: HOP-62 NSCLC
[56] = system: NCI-H226 lung
[57] = system: RXF 393 renal

CC/C=C\C(O)(C(=O)OC1CCN(C)CC1)C1CCCC1 (centres undefined) gave a GI50 [1] greater than 100 µM, a TGI [1] greater than 100 µM and a GI50 [2] greater than 100 µM. The TGI [2] was greater than 100 µM, the GI50 [3] was greater than 100 µM and the TGI [3] was greater than 100 µM. The GI50 [4] was greater than 100 µM, the TGI [4] was greater than 100 µM and the GI50 [5] was greater than 100 µM. For the same compound, the TGI [5] was greater than 100 µM, the GI50 [6] was greater than 100 µM and the TGI [6] was greater than 100 µM. The GI50 [7] was greater than 100 µM, the TGI [7] was greater than 100 µM and the GI50 [8] was greater than 100 µM. The TGI [8] was greater than 100 µM, the GI50 [9] was greater than 100 µM and the TGI [9] was greater than 100 µM. The GI50 [10] was greater than 100 µM, the TGI [10] was greater than 100 µM and the GI50 [11] was greater than 100 µM. It also gave a TGI [11] greater than 100 µM, a GI50 [12] greater than 100 µM and a TGI [12] greater than 100 µM. For the same compound, the GI50 [13] was greater than 100 µM, the TGI [13] was greater than 100 µM and the GI50 [14] was greater than 100 µM. For the same compound, the TGI [14] was greater than 100 µM, the GI50 [15] was greater than 100 µM and the TGI [15] was greater than 100 µM. It also gave a GI50 [16] greater than 100 µM, a TGI [16] greater than 100 µM and a GI50 [17] greater than 100 µM. For the same compound, the TGI [17] was greater than 100 µM, the GI50 [18] was greater than 100 µM and the TGI [18] was greater than 100 µM. It also gave a GI50 [19] greater than 100 µM, a TGI [19] greater than 100 µM and a GI50 [20] greater than 100 µM. The TGI [20] was greater than 100 µM, the GI50 [21] was greater than 100 µM and the TGI [21] was greater than 100 µM. The GI50 [22] was greater than 100 µM, the TGI [22] was greater than 100 µM and the GI50 [23] was greater than 100 µM. It also gave a TGI [23] greater than 100 µM, a GI50 [24] greater than 100 µM and a TGI [24] greater than 100 µM. The GI50 [25] was greater than 100 µM, the TGI [25] was greater than 100 µM and the GI50 [26] was greater than 100 µM. For the same compound, the TGI [26] was greater than 100 µM, the GI50 [27] was greater than 100 µM and the TGI [27] was greater than 100 µM. For the same compound, the GI50 [28] was greater than 100 µM, the TGI [28] was greater than 100 µM and the GI50 [29] was greater than 100 µM. For the same compound, the TGI [29] was greater than 100 µM, the GI50 [30] was greater than 100 µM and the TGI [30] was greater than 100 µM. It also gave a GI50 [31] greater than 100 µM, a TGI [31] greater than 100 µM and a GI50 [32] greater than 100 µM. The TGI [32] was greater than 100 µM, the GI50 [33] was greater than 100 µM and the TGI [33] was greater than 100 µM. The GI50 [34] was greater than 100 µM, the TGI [34] was greater than 100 µM and the GI50 [35] was 56.4 µM. It also gave a TGI [35] greater than 100 µM, a GI50 [36] greater than 100 µM and a TGI [36] greater than 100 µM. For the same compound, the GI50 [37] was greater than 100 µM, the TGI [37] was greater than 100 µM and the GI50 [38] was greater than 100 µM. For the same compound, the TGI [38] was greater than 100 µM, the GI50 [39] was greater than 100 µM and the TGI [39] was greater than 100 µM. For the same compound, the GI50 [40] was greater than 100 µM, the TGI [40] was greater than 100 µM and the GI50 [41] was greater than 100 µM. The TGI [41] was greater than 100 µM, the GI50 [42] was greater than 100 µM and the TGI [42] was greater than 100 µM. The GI50 [43] was greater than 100 µM, the TGI [43] was greater than 100 µM and the GI50 [44] was greater than 100 µM. The TGI [44] was greater than 100 µM, the GI50 [45] was greater than 100 µM and the TGI [45] was greater than 100 µM. For the same compound, the GI50 [46] was greater than 100 µM, the TGI [46] was greater than 100 µM and the GI50 [47] was greater than 100 µM. The TGI [47] was greater than 100 µM, the GI50 [48] was greater than 100 µM and the TGI [48] was greater than 100 µM. The GI50 [49] was greater than 100 µM, the TGI [49] was greater than 100 µM and the GI50 [50] was greater than 100 µM. For the same compound, the TGI [50] was greater than 100 µM, the GI50 [51] was greater than 100 µM and the TGI [51] was greater than 100 µM. The GI50 [52] was greater than 100 µM, the TGI [52] was greater than 100 µM and the GI50 [53] was greater than 100 µM. For the same compound, the TGI [53] was greater than 100 µM, the GI50 [54] was greater than 100 µM and the TGI [54] was greater than 100 µM. For the same compound, the GI50 [55] was greater than 100 µM, the TGI [55] was greater than 100 µM and the GI50 [56] was greater than 100 µM. It also gave a TGI [56] greater than 100 µM, a GI50 [57] greater than 100 µM and a TGI [57] greater than 100 µM.
